Drawing on patent publication US11351221B2, “SMAC mimetic” (Medivir AB, priority 2009, dated 2022), this text covers Mortality for one molecule.

The format of the series is in vivo. The conditions noted are these: rat, 5 mg/Kg, QDx4 i.v. bolus. The protocol:
Body weight loss (BWL), mortality and additional toxicity data were generated substantially as follows. Sprague-Dawley rats were dosed daily (QD×4, i.v. bolus slow push) with Compounds 15, 4 and 5. Body weights were taken on day 4 and are shown as percent change from day 1. Compounds 4 and 5 were administered at 0.3 mg/Kg, 1 mg/Kg, or 3 mg/Kg; Compound 15 was administered at 1, 5, or 10 mg/Kg.

Take `CC[C@H](NC(=O)[C@H](C)NC)C(=O)N1C[C@@H](O)C[C@H]1Cc1c(-c2[nH]c3cc(F)ccc3c2C[C@@H]2C[C@H](O)CN2C(=O)[C@H](CC)NC(=O)[C@H](C)NC)[nH]c2cc(F)ccc12` [Compound 15, N-{1S-[2R-(6,6′-Difluoro-3′-{4S-hydroxy-1-[2S-(2S-methylamino-propionylamino)-butyryl]-pyrrolidin-2R-ylmethyl}-1H,1′H-[2,2′]biindolyl-3-ylmethyl)-4S-hydroxy-pyrrolidine-1-carbonyl]-propyl}-2S-methylamino-propionamide]: the Mortality entry is reported as “No mortality was observed”.
